Results as given in article PMC5207538, “Substrates and Inhibitors of SAMHD1” (PLoS ONE, 2017).

Substrate: Cc1cn([C@H]2C[C@H](O)[C@@H](COP(=O)(O)OP(=O)(O)OP(=O)(O)O)O2)c(=O)[nH]c1=O
Experiment: purified protein
Details: Mg2+ ([…] MgCl2); GTP activator catalytic site

B1: SAMHD1 (Homo sapiens) (protein)
chain: MQRADSEQPSKRPRCDDSPRTPSNTPSAEADWSPGLELHPDYKTWGPEQVCSFLRRGGFEEPVLLKNIRENEITGALLPCLDESRFENLGVSSLGERKKLLSYIQRLVQIHVDTMKVINDPIHGHIELHPLLVRIIDTPQFQRLRYIKQLGGGYYVFPGASHNRFEHSLGVGYLAGCLVHALGEKQPELQISERDVLCVQIAGLCHDLGHGPFSHMFDGRFIPLARPEVKWTHEQGSVMMFEHLINSNGIKPVMEQYGLIPEEDICFIKEQIVGPLESPVEDSLWPYKGRPENKSFLYEIVSNKRNGIDVDKWDYFARDCHHLGIQNNFDYKRFIKFARVCEVDNELRICARDKEVGNLYDMFHTRNSLHRRAYQHKVGNIIDTMITDAFLKADDYIEITGAGGKKYRISTAIDDMEAYTKLTDNIFLEILYSTDPKLKDAREILKQIEYRNLFKYVGETQPTGQIKIKREDYESLPKEVASAKPKVLLDVKLKAEDFIVDVINMDYGMQEKNPIDHVSFYCKTAPNRAIRITKNQVSQLLPEKFAEQLIRVYCKKVDRKSLYAARQYFVQWCADRNFTKPQDGDVIAPLITPQKKEWNDSTSVQNPTRLREASKSRVQLFKDDPM
Km: 845 ± 229 µM
